Drawing on PMC6026870, “Selective induction of cancer cell death by VDAC1‐based peptides and their potential use in cancer therapy” (Molecular Oncology, 2018), this text covers EC50 for one compound.

Molecules are shown by their SMILES. Several values for one entry are separate records, joined by “and”; a condition that tells them apart may be missing. Equal values may be shown once.

For experiment [1], the system named is AsPC1. Description: Cell death, PI staining and FACS. It counts as cell-based, human. Conditions: 6 h, serum‐free medium, PI staining, FACS, from maximal extent of cell death, mean ± SE (n = 3), read-out: Peptide EC50, μM (half‐maximal cell death activity). Here is the method:
(§1) Leukemia cells, U‐937, MEC‐1 cells (4 × 10^5 or 8 × 10^5 cells/sample, respectively), as well as other leukemia or suspension cell lines, were incubated in 200 μL serum‐free medium with various concentrations of the peptide for 90 min at 23–25 °C, collected by centrifugation (500 g, 5 min), washed with PBS, and analyzed for cell death. Adherent cells (6 × 10^5 mL^−1 at 70–80% confluence) were incubated with the peptide of interest in 500 μL serum‐free recommended culture medium for 3–6 h at 37 °C and 5% CO2. The cells were then trypsinized, centrifuged (1500 g, 5 min), washed with PBS, and analyzed for the desired activity. Following peptide treatment, cells were subjected to cell death analysis. Propidium iodide (PI) staining was performed by addition of PI (6.25 μg·mL^−1) to the cells and immediate analysis by the EC800 Flow cytometer Analyzer–Eclipse or the FACS caliber (Becton‐Dickinson, San Jose, CA, USA) and BD […] PRO software (BD Biosciences, San Jose, CA, USA).
(§2) Forty‐one cancerous and five noncancerous cell lines were used in this study to examine the cell‐killing activity of the VDAC1‐based peptides Antp‐LP4, Tf‐LP4, Tf‐D‐LP4, R‐Tf‐D‐LP4, N‐Ter‐Antp, and others (Figs 1, 2, 3 and Tables 1, 2, 3). For each line, cells were incubated with different peptide concentrations, and cell death was determined by PI staining and FACS analysis (Figs 1, 2, 3). In addition, for each cell line, the concentration of the peptide inducing 50% cell death (EC50) was determined (Tables 1, 2, 3).

In experiment [2] the test system is A‐375. Kind of experiment: Cell death, PI staining and FACS. It counts as cell-based, human. Particulars: 6 h, serum‐free medium, PI staining, FACS, from maximal extent of cell death, mean ± SE (n = 3), read-out: Peptide EC50, μM (half‐maximal cell death activity). As for the experimental part: as §1, §2
The test system of experiment [3] is H358. Description: Cell death, PI staining and FACS. It counts as cell-based, human. Particulars: 6 h, serum‐free medium, PI staining, FACS, from maximal extent of cell death, mean ± SE (n = 3), read-out: Peptide EC50, μM (half‐maximal cell death activity). Here is the method: as §1, §2
For experiment [4], the system named is HeLa. Description: Cell death, PI staining and FACS. The format is cell-based, human. Particulars: 6 h, serum‐free medium, PI staining, FACS, from maximal extent of cell death, mean ± SE (n = 3), read-out: Peptide EC50, μM (half‐maximal cell death activity). As for the experimental part:
as §1, §2

Experiment [5] deals with HepG2. Kind of experiment: Cell death, PI staining and FACS. Conditions: 6 h, serum‐free medium, PI staining, FACS, from maximal extent of cell death, mean ± SE (n = 3), read-out: Peptide EC50, μM (half‐maximal cell death activity). The format is cell-based, human. As for the experimental part:
as §1, §2

Experiment [6] concerns HuH‐7. Description: Cell death, PI staining and FACS. Conditions: 6 h, serum‐free medium, PI staining, FACS, from maximal extent of cell death, mean ± SE (n = 3), read-out: Peptide EC50, μM (half‐maximal cell death activity). The format is cell-based, human. Here is the method: as §1, §2
Experiment [7] concerns Jurkat. Kind of experiment: Cell death, PI staining and FACS. Conditions: 90 min, serum‐free medium, PI staining, FACS, from maximal extent of cell death, mean ± SE (n = 3), read-out: Peptide EC50, μM (half‐maximal cell death activity). The format is cell-based, human. As for the experimental part:
as §1, §2

Experiment [8] has as its system K‐562. Kind of experiment: Cell death, PI staining and FACS. Conditions: 90 min, serum‐free medium, PI staining, FACS, from maximal extent of cell death, mean ± SE (n = 3), read-out: Peptide EC50, μM (half‐maximal cell death activity). It counts as cell-based, human. As for the experimental part: as §1, §2
Experiment [9] concerns MCF‐7. Kind of experiment: Cell death, PI staining and FACS. The format is cell-based, human. Particulars: 6 h, serum‐free medium, PI staining, FACS, from maximal extent of cell death, mean ± SE (n = 3), read-out: Peptide EC50, μM (half‐maximal cell death activity). Here is the method:
as §1, §2

Experiment [10] deals with MEC‐1. Kind of experiment: Cell death, PI staining and FACS. It counts as cell-based, human. Conditions: 90 min, serum‐free medium, PI staining, FACS, from maximal extent of cell death, mean ± SE (n = 3), read-out: Peptide EC50, μM (half‐maximal cell death activity). As for the experimental part:
as §1, §2

For experiment [11], the system named is Molt‐4. Kind of experiment: Cell death, PI staining and FACS. The format is cell-based, human. Particulars: 90 min, serum‐free medium, PI staining, FACS, from maximal extent of cell death, mean ± SE (n = 3), read-out: Peptide EC50, μM (half‐maximal cell death activity). Here is the method: as §1, §2
In experiment [12] the test system is SKOV‐3. Kind of experiment: Cell death, PI staining and FACS. It counts as cell-based, human. Conditions: 6 h, serum‐free medium, PI staining, FACS, from maximal extent of cell death, mean ± SE (n = 3), read-out: Peptide EC50, μM (half‐maximal cell death activity). As for the experimental part: as §1, §2
Experiment [13] relates to T3M4. Description: Cell death, PI staining and FACS. Conditions: 6 h, serum‐free medium, PI staining, FACS, from maximal extent of cell death, mean ± SE (n = 3), read-out: Peptide EC50, μM (half‐maximal cell death activity). The format is cell-based, human. Here is the method:
as §1, §2

For experiment [14], the system named is THP‐1. Kind of experiment: Cell death, PI staining and FACS. The format is cell-based, human. Conditions: 90 min, serum‐free medium, PI staining, FACS, from maximal extent of cell death, mean ± SE (n = 3), read-out: Peptide EC50, μM (half‐maximal cell death activity). As for the experimental part:
as §1, §2

Experiment [15] concerns T‐Rex‐293. Description: Cell death, PI staining and FACS. The format is cell-based, human. Conditions: T‐Rex‐293 nonmalignant; 6 h, serum‐free medium; PI staining, FACS; from maximal extent of cell death; mean ± SE (n = 3); read-out: Peptide EC50, μM (half‐maximal cell death activity). As for the experimental part: as §1, §2
In experiment [16] the test system is U‐937. Kind of experiment: Cell death, PI staining and FACS. Particulars: 90 min, serum‐free medium, PI staining, FACS, from maximal extent of cell death, mean ± SE (n = 3), read-out: Peptide EC50, μM (half‐maximal cell death activity). The format is cell-based, human. Here is the method:
as §1, §2

Experiment [17] concerns A549. It counts as cell-based. Particulars: A‐549; 6 h, serum‐free medium; PI staining, FACS; from maximal extent of cell death; mean ± SE (n = 3); read-out: Peptide EC50, μM (half‐maximal cell death activity).
For experiment [18], the system named is DU‐145. The format is cell-based. Particulars: DU‐145; 6 h, serum‐free medium; PI staining, FACS; from maximal extent of cell death; mean ± SE (n = 3); read-out: Peptide EC50, μM (half‐maximal cell death activity).
Experiment [19] has as its system MDA‐MB‐231. It counts as cell-based. Conditions: 6 h, serum‐free medium, PI staining, FACS, from maximal extent of cell death, mean ± SE (n = 3), read-out: Peptide EC50, μM (half‐maximal cell death activity).
Experiment [20] has as its system PANC1. The format is cell-based. Particulars: PANC1; 6 h, serum‐free medium; PI staining, FACS; from maximal extent of cell death; mean ± SE (n = 3); read-out: Peptide EC50, μM (half‐maximal cell death activity).
Experiment [21] has as its system PC‐3. The format is cell-based. Conditions: PC‐3; 6 h, serum‐free medium; PI staining, FACS; from maximal extent of cell death; mean ± SE (n = 3); read-out: Peptide EC50, μM (half‐maximal cell death activity).
The test system of experiment [22] is PWR‐1E. The format is cell-based. Particulars: PWR‐1E noncancer cells; 6 h, serum‐free medium; PI staining, FACS; from maximal extent of cell death; mean ± SE (n = 3); read-out: Peptide EC50, μM (half‐maximal cell death activity).
Experiment [23] deals with U‐87MG. It counts as cell-based. Conditions: U‐87MG; 6 h, serum‐free medium; PI staining, FACS; from maximal extent of cell death; mean ± SE (n = 3); read-out: Peptide EC50, μM (half‐maximal cell death activity).
Experiment [24] has as its system CNS‐1. Kind of experiment: Cell death, PI staining and FACS. Particulars: 6 h, serum‐free medium, PI staining, FACS, from maximal extent of cell death, mean ± SE (n = 3), read-out: Peptide EC50, μM (half‐maximal cell death activity). It counts as cell-based, rat. As for the experimental part:
as §1
Forty‐one cancerous and five noncancerous cell lines were used in this study to examine the cell‐killing activity of the VDAC1‐based peptides Antp‐LP4, Tf‐LP4, Tf‐D‐LP4, R‐Tf‐D‐LP4, N‐Ter‐Antp, and others (Figs 1, 2, 3 and Tables 1, 2, 3). For each line, cells were incubated with different peptide concentrations, and cell death was determined by PI staining and FACS analysis (Figs 1, 2, 3). […]

In the case of `CC[C@H](C)[C@H](NC(=O)[C@H](CCCCN)NC(=O)[C@@H](NC(=O)[C@H](CCC(N)=O)NC(=O)[C@@H](N)CCCNC(=N)N)[C@@H](C)CC)C(=O)N[C@@H](Cc1c[nH]c2ccccc12)C(=O)N[C@@H](Cc1ccccc1)C(=O)N[C@@H](CCC(N)=O)C(=O)N[C@@H](CC(N)=O)C(=O)N[C@@H](CCCNC(=N)N)C(=O)N[C@@H](CCCNC(=N)N)C(=O)N[C@@H](CCSC)C(=O)N[C@@H](CCCCN)C(=O)N[C@@H](Cc1c[nH]c2ccccc12)C(=O)N[C@@H](CCCCN)C(=O)N[C@@H](CCCCN)C(=O)N[C@@H](CO)C(=O)N[C@@H](Cc1c[nH]c2ccccc12)C(=O)N[C@H](C(=O)N[C@@H](Cc1c[nH]c2ccccc12)C(=O)N[C@@H](CCC(=O)O)C(=O)N[C@@H](CCCCN)C(=O)N[C@@H](CCCCN)C(=O)N[C@@H](CC(C)C)C(=O)N[C@@H](CCC(=O)O)C(=O)N[C@H](C(=O)N[C@@H](C)C(=O)N[C@H](C(=O)N[C@@H](CC(N)=O)C(=O)N[C@@H](CC(C)C)C(=O)N[C@@H](C)C(=O)N[C@@H](Cc1c[nH]c2ccccc12)C(=O)N[C@H](C(=O)N[C@@H](C)C(=O)NCC(=O)N[C@@H](CC(N)=O)C(=O)N[C@@H](CO)C(=O)N[C@@H](CC(N)=O)C(=O)N[C@@H](CCCCN)C(=O)N[C@@H](Cc1c[nH]c2ccccc12)C(=O)N[C@H](C(=O)N[C@@H](Cc1c[nH]c2ccccc12)C(=O)N[C@@H](CCCCN)C(=O)O)[C@@H](C)O)[C@@H](C)O)C(C)C)[C@@H](C)O)[C@@H](C)O` [Antp‐LP4], the EC50 in experiment [1] was 12 ± 7.3 µM; in experiment [2], 33.8 ± 3.2 µM; in experiment [3] it was ≤ 6 µM and 7.6 µM; in experiment [4], 3.9 ± 1.1 µM; in [5], 8.6 ± 3 µM; in [6] it was 2.3 ± 1.5 µM. The EC50 was 1.3 ± 0.5 µM in experiment [7]; 1.2 ± 0.1 µM in experiment [8]; 10.1 ± 0.2 µM in [9]; ≤ 3 µM and 2.4 µM in experiment [10]; 3.4 ± 2 µM in experiment [11]; 6.9 ± 0.7 µM in [12]. The EC50 in experiment [13] is 2 ± 0.7 µM; in [14], 1.3 ± 0.5 µM; in [15], 29.3 ± 4 µM; in experiment [16] it was ≤ 3 µM and 1.9 µM; in [17] it was ≤ 6 µM and 6.4 µM; in experiment [18] it was 4 ± 0.5 µM. Moreover, the EC50 is 8.1 ± 2.4 µM in [19]; ≥ 18 µM and 28.7 µM in experiment [20]; 5.9 ± 1.5 µM in experiment [21]; 15.5 ± 2 µM in experiment [22]; 6.2 ± 1.3 µM in experiment [23]; 1.3 ± 0.8 µM in [24].

The term EC50 denotes the concentration needed to bring the measured effect to its halfway point.
